Earlier results as cited in publication PMC11943303, “A Metabolically Stable Apelin-13 Analog Acting as a Potent ITo Potassium Current Blocker with Potential Benefits for Brugada Syndrome” (International Journal of Molecular Sciences, 2025).

Tests used:
[1] = design: method as in PMID 10777510, PMID 18272843; settings: isoforms identified in vivo; cited from earlier work
[2] = system: angiotensin-converting enzyme 2 (ACE-2); settings: ACE-2 cleaves apelin-13 between Pro^12 and Phe^13; cited from earlier work

Substance: apelin-13
- susceptibility to proteolysis [1]: highly susceptible to proteolysis
- half-life in vivo [2]: less than 1 min

Substance: apelin-17
- susceptibility to proteolysis [1]: highly susceptible to proteolysis
